Tests used:
Assay in all cases: Kinase panel screening
Conditions in all cases: read-out: % inhibition rate
[1] = molecular target: LCK (Homo sapiens (Human), UniProt P06239); format: biochemical
[2] = molecular target: ERK1 (Homo sapiens (Human), UniProt P27361)
[3] = molecular target: BRAF (Homo sapiens (Human), UniProt P15056)
[4] = molecular target: PKA (Homo sapiens (Human), UniProt P17612)
[5] = molecular target: ALK (Homo sapiens (Human), UniProt Q9UM73)
[6] = molecular target: Aurora A (Homo sapiens (Human), UniProt O14965)
[7] = molecular target: LYN (Homo sapiens (Human), UniProt P07948)
[8] = molecular target: MTOR/FRAP1 (Homo sapiens (Human), UniProt P42345); format: biochemical
[9] = molecular target: EGFR (Homo sapiens (Human), UniProt P00533)
[10] = molecular target: ABL1 (Homo sapiens (Human), UniProt P00519); format: biochemical
[11] = molecular target: c-Src (Homo sapiens (Human), UniProt P12931)
[12] = molecular target: BRAF (V599E) (Homo sapiens (Human), UniProt P15056, V600E)
[13] = molecular target: JNK3 (Homo sapiens (Human), UniProt P53779)
[14] = molecular target: FGFR3 (Homo sapiens (Human), UniProt P22607)
[15] = molecular target: RON/MSTIR (Homo sapiens (Human), UniProt Q04912)
[16] = molecular target: c-Kit (Homo sapiens (Human), UniProt P10721)
[17] = molecular target: AKT1 (Homo sapiens (Human), UniProt P31749)
[18] = molecular target: RIPK3 (Homo sapiens (Human), UniProt Q9Y572)
[19] = molecular target: CDK2/cyclin E (Homo sapiens (Human), UniProt P24941); format: biochemical
[20] = molecular target: IGFIR (Homo sapiens (Human), UniProt P08069)
[21] = molecular target: P38a/MAPK14 (Homo sapiens (Human), UniProt Q16539)
[22] = molecular target: PLK1 (Homo sapiens (Human), UniProt P53350); format: biochemical
[23] = molecular target: c-MET (Homo sapiens (Human), UniProt P08581)
[24] = molecular target: FLT1/VEGFR1 (Homo sapiens (Human), UniProt P17948)
[25] = molecular target: GSK3b (Homo sapiens (Human), UniProt P49841); format: biochemical
[26] = molecular target: CDK1/cyclinB (Homo sapiens (Human), UniProt P06493)
[27] = molecular target: KDR/VEGFR2 (Homo sapiens (Human), UniProt P35968); format: biochemical
[28] = molecular target: MEK1 (Homo sapiens (Human), UniProt Q02750)
[29] = molecular target: JAK3 (Homo sapiens (Human), UniProt P52333)
[30] = molecular target: BTK (Homo sapiens (Human), UniProt Q06187)

Structure (SMILES): Cc1oncc1C(=O)Nc1ccc2[nH]c(-c3cc(N4CCN(C)CC4)cc(C(F)(F)F)c3)nc2c1 [Compound 5a, 5-methyl-N-(2-(3-(4-methylpiperazin-1-yl)-5-(trifluoromethyl)phenyl)-1H-benz[d]imidazol-5-yl)isoxazole-4-carboxamide]
- inhibition at 10 µM [1]: 0.625%
- inhibition at 10 µM [2]: 5.18%
- inhibition at 10 µM [3]: 7.31%
- inhibition at 10 µM [4]: 8.46%
- inhibition at 10 µM [5]: 12.6%
- inhibition at 10 µM [6]: 12.5%
- inhibition at 10 µM [7]: 15.2%
- inhibition at 10 µM [8]: 2.35%
- inhibition at 10 µM [9]: 4.09%
- inhibition at 10 µM [10]: 17.1%
- inhibition at 10 µM [11]: 0%
- inhibition at 10 µM [12]: 11.9%
- inhibition at 10 µM [13]: 7.12%
- inhibition at 10 µM [14]: 2.81%
- inhibition at 10 µM [15]: 0%
- inhibition at 10 µM [16]: 15.5%
- inhibition at 10 µM [17]: 11.9%
- inhibition at 10 µM [18]: 12.7%
- inhibition at 10 µM [19]: 1.78%
- inhibition at 10 µM [20]: 7.13%
- inhibition at 10 µM [21]: 0%
- inhibition at 10 µM [22]: 17.4%
- inhibition at 10 µM [23]: 9.18%
- inhibition at 10 µM [24]: 12.7%
- inhibition at 10 µM [25]: 3.98%
- inhibition at 10 µM [26]: 9.31%
- inhibition at 10 µM [27]: 13.2%
- inhibition at 10 µM [28]: 18.8%
- inhibition at 10 µM [29]: 0%
- inhibition at 10 µM [30]: 15.6%

Reference: patent US12473278B2 (Industry—University Cooperation Foundation Hangyang …, priority 2019, dated 2025)
